Earlier results as cited in patent publication US12102629B1, “Intranasal composition of pharmaceutical countermeasures for chemical warfare nerve agents and accidental exposure to organophosphate pesticides” (dated 2024).

Assays:
[1] = intranasal epinephrine solution with 1% taurodeoxycholic acid
[2] = used as mucosal permeation enhancer, 1% solution, intranasal
[3] = injectable drug, after 4 weeks of heat exposure

CNC[C@H](O)c1ccc(O)c(O)c1
absolute bioavailability [1]: quite low

C[C@H](CCC(=O)NCCS(=O)(=O)O)[C@H]1CC[C@H]2[C@@H]3CC[C@@H]4C[C@H](O)CC[C@]4(C)[C@H]3C[C@H](O)[C@]12C
nasal mucosal tissue damage [2]: severe nasal mucosal tissue damage

CN1[C@@H]2CC[C@H]1C[C@@H](OC(=O)C(CO)c1ccccc1)C2 (stereo partly drawn)
degradation after heat exposure [3]: undetectable
